Source: PubChem (National Center for Advancing Translational Sciences (NCATS))
Glioma ERSR ind: inducers of ER stress response in human glioma cells; U87-MG GRP78 promoter luciferase reporter, 16 h; Potency, µM, for inactives: at the top dose activation, hits mostly activators; hit rate 0.02% among 420,000; further: potency means the concentration at half of the fitted maximal effect; series mostly up to about 76 µM; % of control where 0% means no effect; nearly all actives have a fitted effect of over 35% in size
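Stably transfected U87-MG glioma cells carrying a GRP78-based luciferase sensor; 16 h compound incubation. Luminescence end-point read 10 min after Bright-Glo addition at room temperature.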
Mito fusion act: mitochondrial division inhibition or fusion activation | S. cerevisiae fusion-defective mutant growth rescue, CellTiterGlo 48 h | Potency, µM (doses to about 46.1 µM), inactives show top-dose growth rescue (activation), usual class: activators | AID 485298 | hit rate 0.23% among 320,000; further: potency means the concentration at half of the fitted maximal effect; % of control where 0% means no effect; nearly all actives have a fitted effect of over 45% in size
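Temperature-sensitive fusion-defective S. cerevisiae (e.g. fzo1-1, mgm1-5) were grown with compound in YPEG medium (3% ethanol, 3% glycerol) for 48 hours at 37C. Growth rescue was measured as viability by CellTiterGlo luminescence after 10 minutes at ambient.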
miR-21 reporter: miR-21 reporter, rising signal | Potency, µM (highest dose often 38.3 µM), for inactives: at the highest dose reporter change, positive = more light | 340,000 tested, under 10 active | HeLa miR-21 FLuc reporter, luciferase, 48 h; active = well fitted rising curve with a large enough effect; inconclusive = small, poorly fitted or top-dose-only effect; inactive = no such curve, though single readings can be large or run the other way;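 note: % of control where 0% means no effect; miR-21 action dims this reporter so a rising signal means less miR-21 action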
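HeLa miR-21-FLuc reporter line, endogenous miR-21; 2000 cells/well in DMEM/10% FBS; compound titration up to ~40uM final, 48 h, 37 degree Celsius; luciferase detection reagent, 15 min lysis, CCD luminescence.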
A549 tox: counter-screen for Nrf2 inhibitors: cytotoxicity in A549 cells; Potency, µM (titrated, usually from 46 µM), for inactives: at the highest dose activity change, negative = cytotoxicity, hits mostly inhibitors; A549 ARE-Fluc cells, CellTiter-Fluor viability, 18-24 h; hit rate 0.16% among 390,000; AID 504648; further: potency means the concentration at half of the fitted maximal effect; on the % scale 0 is the no-effect control and ±100 the full control effect
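Cytotoxicity counterscreen: CellTiter-Fluor fluorescence was measured in A549 ARE_Fluc cells after 18-24 h of compound exposure in a concentration series. The subsequent BugLite luminescent read reports ARE-luciferase activity.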
Nrf2 activator: Nrf2 pathway activation; AREc32 ARE-luciferase reporter (MCF7-derived line), luminescence, 24 h; hit rate 0.31% among 410,000; Potency, µM (highest dose often 46.1 µM), for the others: at the top dose activation, usual class: activators; further: potency means the concentration at half of the fitted maximal effect; % of control where 0% means no effect; nearly all actives have a fitted effect of over 65% in size
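AREc32_Fluc, 1000 cells/well, OPTI-MEM + 5% FBS, o/n 37 deg C 5% CO2; 23 nL cpd by pin tool, 24 hr; Steady-Glo 30 min RT, luminescence.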
Nrf2 block: Nrf2 pathway inhibition; A549 ARE-Fluc reporter, luciferase luminescence, 18-24 h; Potency, µM (highest dose often 46 µM), without a hit: at the highest dose activity change, negative = inhibition, hits mostly inhibitors; hit rate 2.1% among 360,000; further: potency means the concentration at half of the fitted maximal effect; on the % scale 0 is the no-effect control and ±100 the full control effect; nearly all actives have a fitted effect of over 60% in size
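Concentration-response testing used A549 ARE_Fluc cells at 5000 cells/well. Following an 18-24 h compound incubation, viability was read by fluorescence (Ex 405/Em 525) and luciferase output by luminescence.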
* hit, by the source's call; ? = inconclusive; / = not tested or not shown; [ ] = remark or other dose. The list is not random: actives were taken first. Their share in the collection is about 2.3%. The call rests on the fitted dose curve; in most records, active means well fitted curve in the direction sought with a large enough effect; inconclusive means small, poorly fitted or top-dose-only effect, or another doubt; inactive means no such curve, though single readings can be large; an effect the other way counts as inactive or inconclusive.

The first 2 entries, ahead of the listing:
SMILES	Glioma ERSR ind	Mito fusion act	miR-21 reporter	A549 tox	Nrf2 activator	Nrf2 block
CCOC(=O)c1ccc(N2C(=O)c3n[nH]c(C)c3C2c2ccccc2OC)cc1 (stereo not drawn)	-3.5%	/	7.5%	-1.9%	5.1%	8.2µM*
CCOC(=O)c1ccc(N2C(=O)c3n[nH]c(-c4ccco4)c3C2c2ccccc2OC)cc1 (stereo not drawn)	-5.3%	/	?	-21.0%	-3.1%	25.9µM*

Main list, from the start:
SMILES	Glioma ERSR ind	Mito fusion act	miR-21 reporter	A549 tox	Nrf2 activator	Nrf2 block
CCOC(=O)c1ccc(N2C(=O)c3n[nH]c(C)c3C2c2ccccc2OC)cc1 (stereo not drawn)	-3.5%	/	7.5%	-1.9%	5.1%	8.2µM*
CCOC(=O)c1ccc(N2C(=O)c3n[nH]c(-c4ccco4)c3C2c2ccccc2OC)cc1 (stereo not drawn)	-5.3%	/	?	-21.0%	-3.1%	25.9µM*
CC(=O)C1C(c2ccc(O)cc2)NC(=O)NC1(O)C(F)(F)F (stereo not drawn)	-4.1%	3.2%	-4.1%	-0.5%	-0.8%	1.1%
Cc1ccc(NC(=O)CN2CCCC2)cc1	1.4%	-1.6%	-6.8%	0.0%	2.8%	3.8%
CCOc1cc(C)nc(NCCc2ccc(OC)c(OC)c2)n1	-2.3%	0.9%	-6.2%	4.5%	0.3%	25.9µM*
COc1ccc(CCNc2ncnc3sc(C)cc23)cc1OC	2.4%	-2.0%	?	-17.9%	1.3%	23.1µM*
COc1ccc(CCNc2ncnc3[nH]ncc23)cc1OC	-4.8%	-2.7%	9.8%	-3.0%	2.3%	?
CCc1nn(CCCC(=O)N2CCN(c3ccc(OC)cc3)CC2)c(=O)c2cc3occc3n12	-4.1%	9.8%	-6.3%	0.5%	0.9%	?
CC1CCN(C(=O)CCc2nc3cc(S(=O)(=O)N(C)C)ccc3n2C)CC1	-5.3%	3.0%	0.3%	?	0.0%	?
Cc1cccc(C)c1OCC(=O)N/N=C/C=C/c1ccco1	8.4%	-3.2%	11.7%	-5.2%	1.58µM*	3.0%
Cc1cccc(OCC(=O)N/N=C/C=C/c2ccco2)c1	?	4.0%	9.0%	-1.2%	22.4µM*	12.1%
O=C(Cc1cccs1)N/N=C/C=C\c1ccco1	5.3%	0.6%	8.7%	-4.6%	11.2µM*	?
Cc1ccc(OCC(=O)N/N=C/C=C/c2ccco2)c(Br)c1	?	0.4%	-0.1%	0.4%	26.4%	-4.9%
Cc1cc(C)cc(NC(=S)NC2CC3CCCC(C2)N3CC(C)C)c1 (stereo not drawn)	-3.4%	-3.6%	-2.9%	-2.4%	0.8%	1.5%
CC1Sc2ccc(S(=O)(=O)N3CCC(C(=O)NCc4ccco4)CC3)cc2NC1=O (stereo not drawn)	1.0%	1.9%	11.2%	-7.7%	3.4%	-4.4%
Cc1cc(NC(=O)CS(=O)(=O)c2cn(Cc3ccc(F)cc3)c3ccccc23)no1	-3.3%	4.2%	25.8%	-8.9%	5.3%	20.6µM*
CCn1cc(S(=O)(=O)CC(=O)Nc2cc(C)on2)c2ccccc21	-4.4%	1.9%	5.3%	0.2%	-0.8%	-21.9%
Cc1cc(NC(=O)CS(=O)(=O)c2cn(Cc3cccc(F)c3)c3ccccc23)no1	-5.3%	3.4%	12.0%	?	0.6%	23.1µM*
Cc1oc(-c2cccs2)nc1CSCC(=O)NC1CC1	-1.8%	1.2%	1.2%	4.6%	0.8%	6.5%
O=S(=O)(c1ccc2ccccc2c1)N1CCN(c2ccc(O)cc2)CC1	-2.2%	/	/	-1.5%	9.1%	10.3µM*

Three compounds out of the list, sorted by count of non-hydrogen atoms, falling.
SMILES	Glioma ERSR ind	Mito fusion act	miR-21 reporter	A549 tox	Nrf2 activator	Nrf2 block
CCc1nn(CCCC(=O)N2CCN(c3ccc(OC)cc3)CC2)c(=O)c2cc3occc3n12	-4.1%	9.8%	-6.3%	0.5%	0.9%	?
O=S(=O)(c1ccc2ccccc2c1)N1CCN(c2ccc(O)cc2)CC1	-2.2%	/	/	-1.5%	9.1%	10.3µM*
CCOc1cc(C)nc(NCCc2ccc(OC)c(OC)c2)n1	-2.3%	0.9%	-6.2%	4.5%	0.3%	25.9µM*

(list continues)
SMILES	Glioma ERSR ind	Mito fusion act	miR-21 reporter	A549 tox	Nrf2 activator	Nrf2 block
O=C(c1cc(S(=O)(=O)N2CCN(c3ccccc3)CC2)ccc1Cl)N1CCCCCCC1	-1.8%	14.1µM*	/	-7.4%	0.2%	20.6µM*
CC1CN(C(=O)c2cc(S(=O)(=O)N3CCN(c4ccccc4)CC3)ccc2Cl)CC(C)O1 (stereo not drawn)	-1.7%	9.1%	/	-8.9%	-0.3%	?
O=C(COC(=O)/C=C/c1ccccc1[N+](=O)[O-])NCc1ccco1	0.5%	/	/	6.0%	14.1µM*	3.1%
Cc1nc(N2CCCCC2)sc1C(=O)c1ccc(Cl)c([N+](=O)[O-])c1	/	27.3%	4.9%	/	/	/
COc1ccc(NC2C[C@H]3CCCC(=O)N4CC[C@@H](C2)[C@@H]34)cc1 (stereo partly drawn)	50.1µM*	/	/	/	/	/
CCN(CC(=O)Nc1ccc2c(c1)OCCO2)CC(=O)Nc1ccc(C)c([N+](=O)[O-])c1	6.8%	/	/	-11.0%	1.7%	3.7%
COc1ccc(C(=O)Sc2ccc(Cl)cc2)cc1OC	-2.4%	5.4%	0.2%	?	6.0%	20.6µM*
CC(C)(C)c1ccc(C2CC2C(=O)N/N=C\c2ccc[nH]2)cc1 (stereo not drawn)	0.8%	1.0%	?	5.8µM*	-0.3%[9.22 µM]	1.64µM*
CC#CCN1c2ccccc2[C@]23C[C@@H](C(=O)OC)N(C(=O)c4cc(C)oc4C)C2=NC(C(=O)OC)=C(C(=O)OC)[C@H]13	-2.3%	?	?	-15.2%	-0.2%	16.4µM*
O=C(CCS(=O)(=O)c1ccccc1)Nc1ncc([N+](=O)[O-])s1	-14.9%	-20.2%	17.7%	-0.1%	?	23.3%
O=C(CCS(=O)(=O)Cc1ccccc1)Nc1ncc([N+](=O)[O-])s1	-4.1%	-2.1%	-3.0%	-9.9%	12.6µM*	?
O=C(COC(=O)c1ccc(-c2ccc([N+](=O)[O-])cc2)o1)NC(=O)NC12CC3CC(CC(C3)C1)C2	0.1%	10µM*	-12.4%	2.7%	2.8%	5.4%
CC(C)Cn1c(=O)c2c(nc3n2CCCN3Cc2ccccc2)n(C)c1=O	-3.9%	20.5%	3.3%	6.6%	2.6%	11.6µM*
O=[N+]([O-])c1ccc(O)c2ncccc12	-6.9%	?	?	13µM*	-2.1%	3.66µM*
O=[N+]([O-])c1cc(Cl)c2cccnc2c1O	-2.2%	?	?	?	11.2%	?
O=[N+]([O-])c1ccc(O)c2cccnc12	-1.8%	-5.3%	-3.0%	-10.3%	2.7%	-25.0%
O=[N+]([O-])c1cc(Cl)c(O)c2ncccc12	-2.5%	13.8%	17.8%	?	7.7%	20.6µM*
COc1ccc(NC(=O)c2cc3c(Cl)nc4ccccc4c3s2)cc1OC	0.4%	-10.4%	-14.7%	-28.0%	-0.7%	10.3µM*
Cc1nc(S(=O)(=O)N2CCN(c3ccccc3F)CC2)cn1C	-4.4%	/	-22.4%	5.8%	0.1%	/
Cc1ccc(NS(=O)(=O)c2ccc(-n3cccn3)cc2)cc1F	-1.6%	2.4%	9.0%	-1.8%	-0.2%	14.6µM*

3 entries from above, ordered by the number in miR-21 reporter, rising:
| Molecule | Glioma ERSR ind | miR-21 reporter | Nrf2 activator |
| --- | --- | --- | --- |
| CC(C)Cn1c(=O)c2c(nc3n2CCCN3Cc2ccccc2)n(C)c1=O | -3.9% | 3.3% | 2.6% |
| Cc1nc(N2CCCCC2)sc1C(=O)c1ccc(Cl)c([N+](=O)[O-])c1 | / | 4.9% | / |
| O=C(CCS(=O)(=O)c1ccccc1)Nc1ncc([N+](=O)[O-])s1 | -14.9% | 17.7% | ? |

Continued.
SMILES	Glioma ERSR ind	Mito fusion act	miR-21 reporter	A549 tox	Nrf2 activator	Nrf2 block
Cc1ccc(Cl)cc1NS(=O)(=O)c1ccc(-n2cccn2)cc1	-4.6%	-31.8%	6.9%	?	0.1%	6.9%
COCCn1c(SCc2csc(-c3ccccc3)n2)nc2ccccc21	-0.2%	29.0%	-2.7%	-21.9%	1.2%	20.6µM*
COCCn1c(SCC(=O)NCc2ccccc2)nc2ccccc21	-2.3%	-4.1%	0.8%	11.2%	0.1%	-7.9%
CCOC(=O)c1c(-c2ccc(F)cc2)csc1/N=C/N(C)C	-2.9%	-1.5%	-20.2%	?	2.8%	16.4µM*
